{"source": "patent US20090054326A1", "about": "“FORMULATIONS FOR ENHANCED MUCOSAL DELIVERY OF PYY” (NASTECH PHARMACEUTICAL COMPANY INC., priority 2005, published 2009)", "key": {"[1]": {"system": "normal, human-derived tracheal/bronchial epithelial cells (EpiAirway Tissue Model)", "assay": "Cell viability, MTT assay in EpiAirway tissue model", "format": "cell-based", "details": "MTT after 1-h incubation", "procedure": "(§1) Samples were evaluated in an in vitro tissue model. […] Inserts were feed for each day of recovery.\nCell viability was assessed using the MTT assay (MTT-100, MatTek kit). Thawed and diluted MTT concentrate was pipetted (300 μl) into a 24-well plate. Tissue inserts were gently dried, placed into the plate wells, and incubated at 37° C. for 3 hours. After incubation, each insert was removed from the plate, blotted gently, and placed into a 24-well extraction plate. The cell culture inserts were then immersed in 2.0 ml of the extractant solution per well (to completely cover the sample). The extraction plate was covered and sealed to reduce evaporation of extractant. After an overnight incubation at room temperature in the dark, the liquid within each insert was decanted back into the well from which it was taken, and the inserts discarded. The extractant solution (200 μl in at least duplicate) was pipetted into a 96-well microtiter plate, along with extract blanks. The optical density of the samples was measured at 550 nm on a plate reader."}, "[2]": {"system": "normal, human-derived tracheal/bronchial epithelial cells (EpiAirway Tissue Model)", "assay": "Cytotoxicity, LDH assay in EpiAirway tissue model", "format": "cell-based", "details": "after 1-h incubation", "procedure": "as §1\nThe amount of cell death (cytotoxicity) was assayed by measuring the loss of lactate dehydrogenase (LDH) from the cells using a CytoTox 96 Cytoxicity Assay Kit (Promega Corp., Madison, Wis.).\nLDH analysis of the apical media was evaluated. The appropriate amount of media was added to the apical surface in order to total 300 uL, taking into consideration the initial sample loading volume. The inserts were shaken for 5 minutes, and then 150 uL of the apical media was removed and dispensed into eppendorf tubes and centrifuged at 10000 rpm for 3 minutes. A volume of 2 uL of the supernatant was removed and added to a 96 well plate. A volume of 48 uL of media was used to dilute the supernatant to make a 25× dilution. For LDH analysis of the basolateral media, 50 uL of sample was loaded into a 96-well assay plate. Fresh, cell-free culture medium was used as a blank. Fifty microliters of substrate solution was added to each well and the plates incubated for 30 minutes at room temperature in the dark. Following incubation, 50 μl of stop solution was added to each well and the plates read on an optical density plate reader at 490 nm. All samples and the negative and media controls had relatively low cytotoxicity by basolateral LDH assay, i.e., no more than 20% compared to the media control. […]"}}, "data": [{"substance": "Triton X", "values": [{"measurement": "cell viability", "setting": "[1]", "result": "substantially decreased cellular viability"}, {"measurement": "cytotoxicity by LDH assay", "setting": "[2]", "result": "relative high cytotoxicity"}]}]}
